Two molecules from article PMC10836093, “Ensemble-based design of tau to inhibit aggregation while preserving biological activity” (Research Square, 2024) can be followed below.

Amino acid sequences for entries named in this document (tags omitted).
UniProt P02550, whole entry, looked up: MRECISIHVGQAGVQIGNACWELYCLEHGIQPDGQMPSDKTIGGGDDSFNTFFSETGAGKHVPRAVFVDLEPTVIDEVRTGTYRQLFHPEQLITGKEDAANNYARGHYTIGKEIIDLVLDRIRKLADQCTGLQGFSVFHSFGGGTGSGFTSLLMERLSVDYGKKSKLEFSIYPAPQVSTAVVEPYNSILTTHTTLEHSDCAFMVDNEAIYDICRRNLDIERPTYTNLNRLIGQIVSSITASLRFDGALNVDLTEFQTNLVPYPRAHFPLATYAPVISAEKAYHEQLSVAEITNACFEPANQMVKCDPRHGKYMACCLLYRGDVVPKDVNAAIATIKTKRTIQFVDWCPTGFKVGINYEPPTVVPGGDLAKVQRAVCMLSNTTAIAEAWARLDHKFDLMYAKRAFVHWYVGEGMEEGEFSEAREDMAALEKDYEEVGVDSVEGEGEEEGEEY

Numbering of substitutions follows the chain as printed. Names and notes keep the numbering of the source.

The target in one series is tubulin dimer (UniProt P02550). In words: cell-based or functional assay.
Series [1] deals with the molecule itself. In words: ThT fluorescence aggregation assay; tauRD 5, 10, 20, 40 μM in 1X PBS, 10 mM DTT, induced with 2X heparin, 37 °C; self-assembly into fibrils, t1/2max from fitted curves; fibrils at endpoints seen by TEM.

B1: tauRD Turn mutant (domain or fragment, human, UniProt P10636-8 243-380, looked up)
chain: LQTAPVPMPDLKNVKSKIGSTENLKHQPGGGKVQIINKKLDLSNVQSKCGSKDNIKHQPGGGKVQIVYKPVDLSKVTSKCGSLGNIHHKPGGGQVEVKSEKLDFKDRVQSKIGSLDNITHVPGGGNKKIETHKLTFRE
notes: tau repeat domain, human MAPT, 4R tauRD residues 243-380 on 2N4R tau, with V300Q and S305K; without tags; also called Turn mutant tauRD; source: E. coli BL21-Gold (DE3), purified (boiling, HiTrap SP, Superdex 75)
Take B1: in the series with tubulin dimer, the “microtubule polymerization assay, polymerization amplitude (endpoint intensity), fold reduction relative to WT tauRD” value was determined as 1.5 fold and the “microtubule polymerization assay, t1/2max to endpoint polymerization, 10 μM tauRD with 2 mg/ml tubulin” value worked out at 0.645 h. In addition, in series [1], the “t1/2max of ThT aggregation at 5 μM” value stood at 97 ± 24 h and the “t1/2max of ThT aggregation at 40 μM” value is 11.1 ± 5.8 h.

B2: tauRD Full mutant (domain or fragment, human, UniProt P10636-8 243-380, looked up)
chain: B1 chain with D53E, I55L
notes: tau repeat domain, human MAPT, 4R tauRD residues 243-380 on 2N4R tau, with D295E, I297L, V300Q and S305K; without tags; also called Full mutant tauRD; source: E. coli BL21-Gold (DE3), purified (boiling, HiTrap SP, Superdex 75)
Regarding B2, in the series with tubulin dimer, the “microtubule polymerization assay, polymerization amplitude (endpoint intensity), fold increase relative to WT tauRD” value is 1.5 fold and the “microtubule polymerization assay, t1/2max to endpoint polymerization, 10 μM tauRD with 2 mg/ml tubulin” value is 0.588 h. Moreover, the “t1/2max of ThT aggregation at 40 μM” value in series [1] came out at 58.6 ± 22.7 h.
